Drawing on ChEMBL document CHEMBL3244068 (J Med Chem, 1978), this text covers log(%) for one compound.

The nature of this data set: Stability of the compound in acetone assessed as hydrolysis at 66 degC after 30 mins. To be noted: 0.5 h.

Only a part of the results on these compounds is given; other tests are left out.

Consider `Cc1cccc(N(CCCl)CCCl)c1`, for which the log(%) was determined as 1.32.
